Screening data (PubChem BioAssay)
Rows were chosen to be rich in hits. Some 2.2% of all compounds tested hit in one or more screens of this group.
Nrf2 block: Nrf2 pathway inhibition; Potency, µM (top dose mostly 46 µM), usual class: inhibitors; A549 ARE-Fluc reporter, luciferase luminescence, 18-24 h; 360,000 tested, 2.1% active; note: nearly all actives have a fitted effect of over 60% in size
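Cells were seeded and rested 2 h, then exposed to compounds for 18-24 h. CellTiter-Fluor was read first as a viability measure. BugLite was added 15 min before the final luminescent read of ARE-luciferase activity in A549 cells.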
A549 viability: A549 cytotoxicity, counter-screen for Nrf2 inhibitors. 390,000 tested, 0.16% active. A549 ARE-Fluc cells, CellTiter-Fluor viability, 18-24 h. Potency, µM (titrated, usually from 46 µM), usual class: inhibitors
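A549 ARE-Fluc cells in 5% FBS OPTI-MEM, 5000 cells/well, rested 2 h then exposed to compounds in concentration-response for 18-24 h at 37 °C. Viability by CellTiter-Fluor fluorescence (Ex 405/Em 525) after 30 min; luciferase luminescence (BugLite, 15 min, RT) read afterwards.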
Nrf2 activator: Nrf2 pathway activation; AREc32 ARE-luciferase reporter (MCF7-derived line), luminescence, 24 h; Potency, µM (top dose mostly 46.1 µM), hits mostly activators; 410,000 tested, 0.31% active; AID 624171; note: nearly all actives have a fitted effect of over 65% in size
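Each well held 1000 AREc32 cells, which were incubated with compound for 24 hr at 37 deg C after overnight attachment, and ARE reporter activity was quantified by firefly luciferase luminescence.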
B2AR arrestin: agonists driving beta-arrestin recruitment to human beta2-adrenergic receptor; AID 492947; 330,000 tested, 0.02% active; beta-arrestin recruitment to beta2AR, cell-based reporter; Potency, µM (top dose mostly 46.1 µM), most hits filed as activators; P07550; note: nearly all actives have a fitted effect of over 65% in size
miR-21 reporter: raises the signal of a miR-21 reporter | HeLa miR-21 FLuc reporter, luciferase, 48 h | Potency, µM (doses to about 38.3 µM) | 340,000 tested, under 10 active | AID 2288; active = well fitted rising curve with a large enough effect; inconclusive = small, poorly fitted or top-dose-only effect; inactive = no such curve, though single readings can be large or run the other way;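 also: miR-21 action dims this reporter so a rising signal means less miR-21 action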
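HeLa cells endogenously expressing miR-21, stably carrying CMV-driven firefly luciferase with a downstream miR-21 binding site, 2000 cells/well. Titrations up to approximately 40 uM, 48 hours; luciferase luminescence read.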
A number is an active result; [ ] = remark or other dose. Unless noted, calls come from the whole dose curve; as a rule, active = well fitted curve in the direction sought with a large enough effect; inconclusive = small, poorly fitted or top-dose-only effect, or another doubt; inactive = no such curve, though single readings can be large; an effect the other way counts as inactive or inconclusive.

What do the screens show for `CSc1nc(N)nc(SCC(=O)Nc2ccc(Cl)cc2)c1C#N`?
Nrf2 block: 14.6µM; A549 viability: inconclusive; Nrf2 activator: inactive; B2AR arrestin: inactive; miR-21 reporter: inactive

Results for CSc1nc(N)nc(SCC(=O)Nc2cccc(F)c2)c1C#N ?
Nrf2 block: inconclusive; A549 viability: inactive; Nrf2 activator: inactive; B2AR arrestin: inactive; miR-21 reporter: inactive

What do the screens show for `CSc1nc(N)nc(SCCS(=O)(=O)c2ccc(Cl)cc2)c1C#N`?
Nrf2 block: inconclusive; A549 viability: inactive[1.84 µM]; Nrf2 activator: 12.6µM; B2AR arrestin: inactive; miR-21 reporter: inactive

Results for Nc1ccccc1SCCS(=O)(=O)c1ccc(Cl)cc1 ?
Nrf2 block: inactive; A549 viability: inactive; Nrf2 activator: inactive; B2AR arrestin: inactive; miR-21 reporter: inactive

Results for Cc1ccc(NC(=O)C2CCCN(c3ncnc4c3nc3n4CCCCC3)C2)c(Br)c1 (stereo unspecified) ?
Nrf2 block: inactive; A549 viability: inactive; Nrf2 activator: inactive; miR-21 reporter: inactive

How did CCOC(=O)c1sc(NC(=O)CSc2n[nH]c(-c3ccccc3)n2)c(C#N)c1C do in these assays?
Nrf2 block: 23.1µM; A549 viability: inactive; Nrf2 activator: inactive; B2AR arrestin: inactive; miR-21 reporter: inactive

What do the screens show for `Cn1cnc([N+](=O)[O-])c1S(=O)(=O)c1cccc(Cl)c1`?
Nrf2 block: inactive; A549 viability: inactive; Nrf2 activator: inactive; B2AR arrestin: inactive; miR-21 reporter: inconclusive

What do the screens show for `CCCn1c(CC)nc([N+](=O)[O-])c1S(=O)(=O)c1ccccc1`?
Nrf2 block: 20.6µM; A549 viability: inconclusive; Nrf2 activator: inactive; B2AR arrestin: inactive; miR-21 reporter: inconclusive

How did Oc1ccc(CNc2ccc(C(F)(F)F)cc2Cl)c2cccnc12 do in these assays?
B2AR arrestin: inactive

Results for O=C(CSc1nc2ccsc2c(=O)n1Cc1ccccc1Cl)NCc1ccc(F)cc1 ?
Nrf2 block: inactive; A549 viability: inactive; Nrf2 activator: inactive; miR-21 reporter: inactive

How did Cc1ccc(-n2nnnc2SCn2nnc3ccccc3c2=O)c(C)c1 do in these assays?
Nrf2 block: 9.2µM; A549 viability: inconclusive; Nrf2 activator: inactive; miR-21 reporter: inactive

What do the screens show for `Cc1cc(SCn2nnc3ccccc3c2=O)nc2ccccc12`?
Nrf2 block: inactive; A549 viability: inactive; Nrf2 activator: inactive; B2AR arrestin: inactive; miR-21 reporter: inactive

What do the screens show for `CCOC(=O)N=Nc1c2ccccc2c2nc3no[nH]c3nc12`?
Nrf2 block: 0.651µM; A549 viability: 0.92µM; Nrf2 activator: inactive; B2AR arrestin: inactive; miR-21 reporter: inconclusive

What do the screens show for `CCOC(=O)N=Nc1c(O)n(CC(=O)OC)c2ccccc12`?
Nrf2 block: inactive; A549 viability: inactive; Nrf2 activator: inactive; B2AR arrestin: inactive; miR-21 reporter: inactive

How did O=C(CN1C(=O)c2cccnc2Oc2ccc(Cl)cc21)Nc1cccc(C(F)(F)F)c1 do in these assays?
Nrf2 block: inconclusive; A549 viability: inactive; Nrf2 activator: inactive; miR-21 reporter: inactive

Results for O=C(NNc1ccccc1)c1sc2ccccc2c1Cl ?
Nrf2 block: inactive; A549 viability: inactive

Results for Cc1nccc(-c2sc(-c3cccs3)nc2C)n1 ?
Nrf2 block: inactive; A549 viability: inactive; Nrf2 activator: 12.6µM; B2AR arrestin: inactive; miR-21 reporter: inactive

Results for O=C1C2=C(C(=O)c3ccccc31)C1O[C@](CCCCN3C(=O)c4ccccc4C3=O)(Cc3c1ccc1ccccc31)O2 ?
B2AR arrestin: inactive[9.22 µM]; miR-21 reporter: inactive[7.66 µM]

Results for COc1ccccc1NC1=Nc2cccc3cccc1c23 ?
Nrf2 block: inactive; A549 viability: 25.9µM; Nrf2 activator: inactive; B2AR arrestin: inactive; miR-21 reporter: inactive

How did COc1ccccc1N1CCN(C2=Nc3cccc4cccc2c34)CC1 do in these assays?
Nrf2 block: inconclusive; A549 viability: inconclusive; Nrf2 activator: inactive; B2AR arrestin: inactive; miR-21 reporter: inactive

Results for COc1cccc(-c2nc(C(=O)NCC3CCCO3)cc3c2[nH]c2ccccc23)c1 (stereo unspecified) ?
Nrf2 block: 20.6µM; A549 viability: inactive; Nrf2 activator: inactive; B2AR arrestin: inactive; miR-21 reporter: inactive

What do the screens show for `COc1ccc(OC)c(-c2nc(C(=O)NCC3CCCO3)cc3c2[nH]c2ccccc23)c1` (stereo unspecified)?
Nrf2 block: inconclusive; A549 viability: inactive; Nrf2 activator: inactive; B2AR arrestin: inactive; miR-21 reporter: inactive

What do the screens show for `Cc1sc(NC(=O)c2ccco2)c(CN2CCCCC2)c1C`?
Nrf2 block: inactive; A549 viability: inactive; Nrf2 activator: 8.91µM; B2AR arrestin: inactive; miR-21 reporter: inactive

What do the screens show for `Cc1ccsc1/C=N/NC(=O)C(O)c1ccccc1` (stereo unspecified)?
Nrf2 block: inactive; A549 viability: inactive; Nrf2 activator: inactive; B2AR arrestin: inactive; miR-21 reporter: inactive

What do the screens show for `COC(=O)N/N=C/c1ccc([N+](=O)[O-])s1`?
Nrf2 block: 6.51µM; A549 viability: 10.3µM; Nrf2 activator: inactive; B2AR arrestin: inactive; miR-21 reporter: inactive

What do the screens show for `O=C(N/N=C\c1ccc([N+](=O)[O-])s1)c1cncc(Br)c1`?
Nrf2 block: 16.4µM; A549 viability: 23.1µM; Nrf2 activator: inactive; B2AR arrestin: inactive; miR-21 reporter: inconclusive

What do the screens show for `Cc1ccc(NC(C)C(=O)N/N=C/c2ccc([N+](=O)[O-])s2)cc1` (stereo unspecified)?
Nrf2 block: inconclusive; A549 viability: inconclusive; Nrf2 activator: inactive; B2AR arrestin: inactive; miR-21 reporter: inactive

What do the screens show for `O=C(N/N=C/c1ccc([N+](=O)[O-])s1)C(O)c1ccccc1` (stereo unspecified)?
Nrf2 block: 5.17µM; A549 viability: inconclusive; Nrf2 activator: inactive; B2AR arrestin: inactive; miR-21 reporter: inactive

Results for COc1ccc(NC(C)C(=O)N/N=C/c2ccc([N+](=O)[O-])s2)cc1 (stereo unspecified) ?
Nrf2 block: 20.6µM; A549 viability: inconclusive; Nrf2 activator: inactive; B2AR arrestin: inactive; miR-21 reporter: inconclusive

What do the screens show for `CCN1C(=NCc2cc(OC)c(OC)c(OC)c2)N[C@@H](c2cccc(F)c2)C(C(=O)OC)=C1C`?
B2AR arrestin: inactive; miR-21 reporter: inactive

How did CCN(Cc1ccccc1)C(=O)c1nc(-c2cccc(F)c2)n2c1CCCCC2 do in these assays?
Nrf2 block: inconclusive; A549 viability: inactive; Nrf2 activator: inactive; miR-21 reporter: inconclusive

How did CCOc1ccccc1NC(=O)c1ccc2c(c1)CCN2S(C)(=O)=O do in these assays?
Nrf2 block: inactive; A549 viability: inactive; Nrf2 activator: inactive; miR-21 reporter: inactive

Results for CC(=O)c1cccc(NC(=O)c2cnn(-c3cccc(C)c3)c2-n2cccc2)c1 ?
Nrf2 block: inconclusive; A549 viability: inactive; Nrf2 activator: inactive; miR-21 reporter: inactive

How did Cc1nnc(SCC(=O)N/N=C/c2cn(-c3ccccc3)nc2-c2ccccc2)n1-c1ccccc1 do in these assays?
Nrf2 block: 16.4µM; A549 viability: inactive; Nrf2 activator: inactive; B2AR arrestin: inactive; miR-21 reporter: inactive
